The source of these data is ChEMBL document CHEMBL1133575, “Discovery of a novel dopamine transporter inhibitor, 4-hydroxy-1-methyl-4-(4-methylphenyl)-3-piperidyl 4-methylphenyl ketone, as a potential cocaine antagonist through 3D-database pharmacophore searching. Molecular modeling, structure-activity relationships, and behavioral pharmacological studies” (J Med Chem, 2000).

By UniProt entry, the sequences of proteins in these tests, tags left out.
UniProt Q01959, whole entry: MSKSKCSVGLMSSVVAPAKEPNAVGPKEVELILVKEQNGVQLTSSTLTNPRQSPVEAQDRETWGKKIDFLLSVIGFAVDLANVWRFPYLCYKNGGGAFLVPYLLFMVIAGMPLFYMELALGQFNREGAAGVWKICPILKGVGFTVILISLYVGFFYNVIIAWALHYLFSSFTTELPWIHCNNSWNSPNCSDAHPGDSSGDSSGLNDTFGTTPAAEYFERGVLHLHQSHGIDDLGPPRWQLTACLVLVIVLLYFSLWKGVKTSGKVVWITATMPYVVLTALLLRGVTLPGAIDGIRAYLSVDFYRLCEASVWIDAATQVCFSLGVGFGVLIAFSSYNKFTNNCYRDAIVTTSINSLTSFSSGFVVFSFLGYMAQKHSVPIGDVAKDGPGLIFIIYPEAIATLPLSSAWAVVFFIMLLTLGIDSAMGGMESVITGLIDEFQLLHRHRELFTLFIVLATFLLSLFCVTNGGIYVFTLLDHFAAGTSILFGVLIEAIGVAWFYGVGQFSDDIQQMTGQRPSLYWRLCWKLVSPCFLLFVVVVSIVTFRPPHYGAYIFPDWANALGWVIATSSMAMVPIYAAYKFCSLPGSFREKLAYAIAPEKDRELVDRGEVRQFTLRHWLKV
UniProt Q9WTR4, whole entry: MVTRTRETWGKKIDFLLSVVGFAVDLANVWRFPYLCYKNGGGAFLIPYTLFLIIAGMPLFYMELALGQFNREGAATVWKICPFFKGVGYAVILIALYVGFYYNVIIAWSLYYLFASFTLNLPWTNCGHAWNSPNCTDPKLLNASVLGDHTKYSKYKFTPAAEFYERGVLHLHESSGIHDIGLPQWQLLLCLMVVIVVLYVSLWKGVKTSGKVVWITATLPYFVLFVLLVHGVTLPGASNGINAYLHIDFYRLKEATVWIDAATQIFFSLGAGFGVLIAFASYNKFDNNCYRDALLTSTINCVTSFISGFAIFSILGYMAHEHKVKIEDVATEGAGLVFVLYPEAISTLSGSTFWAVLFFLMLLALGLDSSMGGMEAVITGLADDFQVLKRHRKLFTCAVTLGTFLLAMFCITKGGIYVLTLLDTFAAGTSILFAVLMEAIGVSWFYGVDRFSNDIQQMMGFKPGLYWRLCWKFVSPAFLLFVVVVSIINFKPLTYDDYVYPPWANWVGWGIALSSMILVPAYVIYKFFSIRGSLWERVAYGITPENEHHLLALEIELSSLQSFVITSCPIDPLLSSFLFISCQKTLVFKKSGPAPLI

Test [1] addresses Sodium-dependent dopamine transporter (Homo sapiens, UniProt Q01959). Nature of the test: Binding Affinity to cocaine site of dopamine transporter in caudate nuclei which was homogenized and incubated with [3H]mazindol.
Test [2] deals with Norepinephrine transporter (Rattus norvegicus, UniProt Q9WTR4). Nature of the test: Inhibition of [3H]NE Uptake in rat parietal/occipital cortex.

pKi: −log10 of the molar value.

The term pKi denotes the Ki on a negative log10 scale, so that one unit is a factor of ten. A low value points to a large Ki. Regarding `CN1CCC(O)(c2ccc(Cl)cc2Cl)C(C(=O)c2ccc(Cl)cc2Cl)C1` (configuration not stated), the pKi in test [1] is 5.44.
Regarding `COC(=O)[C@H]1[C@@H](OC(=O)c2ccccc2)C[C@@H]2CC[C@H]1N2C` [COCAINE], in test [2], the pKi was 6.97.
